Like-named read-outs stand apart in the source and are kept apart here.
Experiments:
Solubility by CAD = experiment: Solubility by CAD
Description: Table 1 Discovery of small molecule RXFP2 antagonists. | column: CAD SOL (μg/mL)

The chains behind the UniProt entries cited, without tags or fusion partners. Residues count along the entry.
UniProt Q8WXD0, whole entry: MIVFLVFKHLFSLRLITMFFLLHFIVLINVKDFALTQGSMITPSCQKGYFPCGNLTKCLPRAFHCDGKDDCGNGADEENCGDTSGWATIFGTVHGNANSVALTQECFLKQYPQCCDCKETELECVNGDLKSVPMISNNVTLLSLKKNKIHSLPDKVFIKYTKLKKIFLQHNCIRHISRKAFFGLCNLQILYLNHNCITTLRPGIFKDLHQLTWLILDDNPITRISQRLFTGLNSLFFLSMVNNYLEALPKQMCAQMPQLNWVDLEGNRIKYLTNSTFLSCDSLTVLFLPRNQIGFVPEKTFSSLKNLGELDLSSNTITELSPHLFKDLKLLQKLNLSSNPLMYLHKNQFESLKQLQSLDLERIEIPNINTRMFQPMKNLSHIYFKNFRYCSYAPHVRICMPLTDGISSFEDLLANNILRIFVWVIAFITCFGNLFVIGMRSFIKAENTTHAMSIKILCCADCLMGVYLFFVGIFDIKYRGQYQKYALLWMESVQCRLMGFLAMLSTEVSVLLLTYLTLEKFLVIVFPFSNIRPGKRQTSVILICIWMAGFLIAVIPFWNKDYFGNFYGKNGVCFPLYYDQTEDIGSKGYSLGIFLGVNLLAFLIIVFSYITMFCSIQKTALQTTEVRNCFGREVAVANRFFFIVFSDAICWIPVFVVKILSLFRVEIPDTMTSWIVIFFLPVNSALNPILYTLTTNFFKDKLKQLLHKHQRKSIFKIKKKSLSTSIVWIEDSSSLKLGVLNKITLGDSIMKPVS
UniProt Q9HBX9, whole entry: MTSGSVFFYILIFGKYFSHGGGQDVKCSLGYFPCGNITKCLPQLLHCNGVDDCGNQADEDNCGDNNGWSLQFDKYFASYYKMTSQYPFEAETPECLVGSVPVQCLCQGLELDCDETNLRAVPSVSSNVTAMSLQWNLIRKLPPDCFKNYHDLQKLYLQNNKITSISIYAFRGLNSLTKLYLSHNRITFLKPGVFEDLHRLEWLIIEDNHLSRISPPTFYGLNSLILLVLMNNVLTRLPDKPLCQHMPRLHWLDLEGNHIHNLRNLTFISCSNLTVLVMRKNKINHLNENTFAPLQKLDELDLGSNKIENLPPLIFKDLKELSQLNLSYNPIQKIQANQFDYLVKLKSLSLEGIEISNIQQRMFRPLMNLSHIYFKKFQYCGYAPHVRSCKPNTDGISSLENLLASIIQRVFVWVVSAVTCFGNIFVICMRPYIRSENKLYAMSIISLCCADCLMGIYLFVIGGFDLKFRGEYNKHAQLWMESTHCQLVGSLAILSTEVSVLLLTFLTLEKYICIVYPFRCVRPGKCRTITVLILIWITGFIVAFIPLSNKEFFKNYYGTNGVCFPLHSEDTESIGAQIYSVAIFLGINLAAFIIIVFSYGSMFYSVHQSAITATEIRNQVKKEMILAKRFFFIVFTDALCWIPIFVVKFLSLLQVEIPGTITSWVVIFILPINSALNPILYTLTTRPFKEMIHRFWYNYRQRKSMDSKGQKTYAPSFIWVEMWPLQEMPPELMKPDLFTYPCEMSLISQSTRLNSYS
UniProt F7EMH8, 20-737 limits assumed: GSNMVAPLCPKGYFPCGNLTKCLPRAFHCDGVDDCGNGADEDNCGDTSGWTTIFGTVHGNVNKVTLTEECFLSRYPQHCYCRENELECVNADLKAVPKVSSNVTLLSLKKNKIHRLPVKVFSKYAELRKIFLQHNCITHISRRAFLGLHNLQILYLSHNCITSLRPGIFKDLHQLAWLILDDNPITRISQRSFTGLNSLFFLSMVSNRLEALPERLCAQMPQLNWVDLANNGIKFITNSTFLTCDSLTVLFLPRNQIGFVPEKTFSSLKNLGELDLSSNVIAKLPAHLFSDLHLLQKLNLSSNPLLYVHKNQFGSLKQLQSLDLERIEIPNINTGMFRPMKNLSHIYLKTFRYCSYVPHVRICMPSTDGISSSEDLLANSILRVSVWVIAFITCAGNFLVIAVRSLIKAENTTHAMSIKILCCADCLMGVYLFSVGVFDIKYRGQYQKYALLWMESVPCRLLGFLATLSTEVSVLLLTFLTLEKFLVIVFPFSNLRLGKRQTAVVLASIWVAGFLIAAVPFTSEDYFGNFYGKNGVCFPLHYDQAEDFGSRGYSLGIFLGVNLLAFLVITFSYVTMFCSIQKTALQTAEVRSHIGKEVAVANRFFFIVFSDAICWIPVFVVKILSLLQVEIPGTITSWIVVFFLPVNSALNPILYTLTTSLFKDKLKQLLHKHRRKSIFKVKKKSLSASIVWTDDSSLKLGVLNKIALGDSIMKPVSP

human RXFP2 = human RXFP2 (Homo sapiens, UniProt Q8WXD0); experiment: INSL3-stimulated cAMP assay in HEK293 with BacMam expression of human RXFP2; settings: for Human RXFP2 % Max response: INSL3-stimulated cAMP; for Human RXFP2 % Max response / IC50: HEK cells with Bacmam hRXFP2, mean; for IC50: read-out: Human RXFP2 IC50, INSL3 EC80-stimulated cAMP
Description: A high throughput screen (HTS) assay was developed using HEK293 cells transduced with RXFP2 via baculovirus-mediated gene transfer (BacMam)[40]. […] The primary assay was performed using homogenous time resolved fluorescence (HTRF) to detect compound inhibition of INSL3 EC80-induced cAMP in HEK293 expressing human RXFP2 (hRXFP2; INSL3 EC50 = 0.048 nM). The HTS campaign identified 104 hits across 8 clusters showing blockade of hRXFP2.
(§1) The nucleotide sequences used in Bacmam transfections encoded RXFP protein as described in UniProt (Q9HBX9. RXFP1_human; Q8WXD0. RXFP2_human; Q5ECL0. RXFP2_rat). HEK293- MSRII cells were maintained in DMEM‐F12, supplemented with 10% fetal bovine serum (FBS) and L-glutamine at 37 °C/5% CO2. HEK293 stably expressing Gα16 were maintained in DMEM‐F12, supplemented with 10% FBS, L-glutamine and selection antibiotics at 37 °C/5% CO2. Transient receptor expression was achieved using modified baculoviruses (BacMam), generated according to manufacturer’s instructions using the Bac-to-Bac system (Invitrogen, UK) encoding hRXFP1, hRXFP2 or rRXFP2. Cells were transduced with RXFP-BacMam at an optimized multiplicity of infection (MOI) of 5.
(§2) cAMP generation was measured using the Lance Ultra cAMP kit as per manufacturer’s instructions (Perkin Elmer) in HEK293 cells transduced in tissue culture flasks with RXFP BacMam, incubated at 37 °C/5% CO2 for 18 h before assay. Primary single shot HTS and specificity assays were performed in 1536-well format. HEK293 wild type (wt) or RXFP2-transduced HEK293 cells were detached, washed in PBS and resuspended in assay buffer (HBSS, 5 mM Hepes, 0.1% BSA, 0.5 mM IBMX, pH 7.4). The cell solution was plated at a density of 500 cells/well in 3 µL into white, 1536-well plates pre-stamped with 50 nL of test compound and incubated for 30 min. Agonist stimulation was induced with the addition of a further 2 µL of assay buffer supplemented with a final EC80 concentration of ligand (20 nM Isoprenaline- no RXFP receptor or 4.5 pM INSL3- RXFP receptor). After a 30 min incubation, 4 µL of Lance detection reagent was added and the FRET signal read 1 h later using a TR-FRET-capable plate reader, with excitation at 340 nm and emission at 615 nm and 665 nm. Results were expressed as acceptor fluorescence (signal at 665 nm/signal at 615 nm) normalized to 100% inhibition and 0% inhibition controls (+/− agonist stimulation respectively). Further confirmation, selectivity and ortholog cAMP assays were performed post-HTS in 384-well format using a modified protocol. Here, 10,000 cells/well were plated in 5 µL into white, 384-well plates pre-stamped with 100 nL of test compound and incubated for 30 min. Agonist stimulation was induced with the addition of a further 5 µL of assay buffer supplemented with a final EC80 concentration of ligand (120 nM INSL3- RXFP2, 0.89 nM INSL3- rRXFP2, 1.6 nM H2 Relaxin- RXFP1). After a 30 min incubation, 10 µL of Lance detection reagent was added and results collected as above.

rat RXFP2 [1] = biological target: rat RXFP2 (Rattus norvegicus, UniProt Q5ECL0); experiment: INSL3-stimulated cAMP assay in HEK293 with BacMam expression of rat RXFP2; settings: HEK cells with Bacmam rRXFP2, mean; for Rat RXFP2 % Max Response: INSL3-stimulated cAMP; for IC50: read-out: Rat RXFP2 IC50, INSL3 EC80-stimulated cAMP
Description: (§3) Active compounds (RXFP2 HTRF IC50 < 100 µM, RXFP2 FLIPR IC50 < 100 µM) were profiled to determine selectivity and rat cross-reactivity (Fig. 2). The RXFP1 assay detected compound inhibition of relaxin EC80-induced cAMP in HEK293 transiently expressing human RXFP1 (hRXFP1). The orthologue RXFP2 assay detected compound inhibition of INSL3 EC80-induced cAMP in HEK293 transiently expressing rat RXFP2 (rRXFP2; INSL3 EC50 = 13 nM). […] Only 7 of 104 compounds had rRXFP2 IC50 < 100 µM, indicating poorly conserved receptor binding sites across species. RXFP2 blockers were organized into two potential series, based on structural similarity. A hit expansion campaign was conducted to confirm structure activity relationships, improve potency, and improve the drug-like properties (LE ~ 0.3, PFI < 6, MWt < 350, Solubility by CLND/CAD > 100 μg/mL). BRL-37274 and GSK618069 were identified as selective RXFP2 antagonists. […] BRL-37274 had IC50 = 15.8 µM with 91% maximum effect, and twofold less potency against rRXFP2. Ultimately, poor chemical properties and low ligand efficiency limited further compound optimization (Table 1, Supplementary Figs. S6, S7).
as §1, §2

human RXFP1 = human RXFP1 (Homo sapiens, UniProt Q9HBX9); experiment: Relaxin-stimulated cAMP assay in HEK293 with BacMam expression of human RXFP1; settings: relaxin EC80-induced cAMP, HEK cells with Bacmam hRXFP1
Description: Active compounds (RXFP2 HTRF IC50 < 100 µM, RXFP2 FLIPR IC50 < 100 µM) were profiled to determine selectivity and rat cross-reactivity (Fig. 2). The RXFP1 assay detected compound inhibition of relaxin EC80-induced cAMP in HEK293 transiently expressing human RXFP1 (hRXFP1). The orthologue RXFP2 assay detected compound inhibition of INSL3 EC80-induced cAMP in HEK293 transiently expressing rat RXFP2 (rRXFP2; INSL3 EC50 = 13 nM). […] Only 7 of 104 compounds had rRXFP2 IC50 < 100 µM, indicating poorly conserved receptor binding sites across species. RXFP2 blockers were organized into two potential series, based on structural similarity. A hit expansion campaign was conducted to confirm structure activity relationships, improve potency, and improve the drug-like properties (LE ~ 0.3, PFI < 6, MWt < 350, Solubility by CLND/CAD > 100 μg/mL). BRL-37274 and GSK618069 were identified as selective RXFP2 antagonists. […]
cAMP generation was measured using the Lance Ultra cAMP kit as per manufacturer’s instructions (Perkin Elmer) in HEK293 cells transduced in tissue culture flasks with RXFP BacMam, incubated at 37 °C/5% CO2 for 18 h before assay. […] After a 30 min incubation, 4 µL of Lance detection reagent was added and the FRET signal read 1 h later using a TR-FRET-capable plate reader, with excitation at 340 nm and emission at 615 nm and 665 nm. […]

rat RXFP2 [2] = biological target: rat RXFP2 (Rattus norvegicus, UniProt F7EMH8); experiment: INSL3-stimulated CYP11B2 mRNA expression in H295R stably expressing rat RXFP2; settings: read-out: IC50 on INSL3-stimulated CYP11B2 mRNA expression; H295R-rRXFP2, 3.5 nM rat INSL3 (EC80), 48 h, qPCR; tested form: formate
Description: RXFP2 antagonists were added to H295R-rRXFP2 before addition of INSL3 EC80 (3.5 nM) for 48 h, whereupon the cells and supernatants were collected. CYP11B1 and CYP11B2 mRNA were determined by qPCR and the RXFP2 blocker potencies were calculated (Fig. 5a). Fifteen antibodies have IC50s < 50 nM, and three of the top antibodies (1F2, 4G6, and 2D4) were selected for evaluation in steroid hormone secretion assays by ELISA.
Cells were prepared as described above and used for assays. 55,000 cells were detached and seeded into each well of a 96-well plate. Replica plates at 3.33× final concentration of the test compound were made and cells were treated with test compounds or mAbs for 1 h before human INSL3 at approximately EC80 (270 pM) was added to the wells. The final test compound or mAb concentrations ranged from 10 mM to 15 nM (in 1% DMSO or PBS). […]
Total RNA was prepared using the MagMax MirVana Total RNA isolation kit (Applied Biosystems, A27828), and cDNA synthesis was performed per manufacturer’s protocol. […] Probes for CYP11B1 (Hs01596404_m1), CYP11B2 (Hs01597732_m1), and GAPDH (Hs02786624_g1) were analyzed. RT-qPCR data was analyzed using the ΔΔCt method. ΔCt was calculated by subtracting internal GAPDH control Ct from the gene Ct. ΔΔCt was calculated by subtracting the average ΔCt of all negative control samples. Gene expression fold change (FC) was calculated as FC = 2^(−ΔΔCt). […]

rat RXFP2 [3] = experiment: INSL3-stimulated cAMP assay in HEK293 with BacMam expression of rat RXFP2; settings: HEK cAMP assays
Description: as §3, §1, §2

CAD SOL (solubility) (Solubility by CAD) [µg/mL] | Human RXFP2 % Max response (human RXFP2) [%] | IC50 (human RXFP2) [µM] | Rat RXFP2 % Max Response (rat RXFP2 [1]) [%] | IC50 (rat RXFP2 [1]) [µM] | CAD SOL (solubility) (Solubility by CAD; tested form: formate) [µg/mL] | Human RXFP1 IC50 (human RXFP1; tested form: formate) [µM] | IC50 (rat RXFP2 [2]) [µM] | Human RXFP2 % Max response (human RXFP2; tested form: formate) [%] | IC50 (human RXFP2; tested form: formate) [µM] | LE (ligand efficiency) (human RXFP2; tested form: formate) | Rat RXFP2 % Max Response (rat RXFP2 [1]; tested form: formate) [%] | IC50 (rat RXFP2 [1]; tested form: formate) [µM] | Human RXFP1 IC50 (human RXFP1) [µM] | LE (ligand efficiency) (human RXFP2) | SMILES | reduced potency against rRXFP2 versus hRXFP2 (rat RXFP2 [3]; tested form: formate) [fold] | reduced potency against rRXFP2 versus hRXFP2 (rat RXFP2 [3])
> 209 | 5 | > 100 | 2 | > 100 |  |  |  |  |  |  |  |  |  |  | CC(C)[C@@H](NS(=O)(=O)c1ccc(C(=O)O)n1C)C(=O)N(C)Cc1ccc(-c2ccc3[nH]ccc3c2)cc1 |  | 
 |  |  |  |  | > 182 | < 4 | 2.8 | 100 | 0.4 | 0.3 | 56 | 79.4 |  |  | O=C(NC1CCCC1)N1CCN(c2cccc3c2nc(-c2ccncc2)n3C2CCNCC2)CC1 | 200 | 
116 | 91 | 15.8 | 87 | 31.6 |  |  |  |  |  |  |  |  | < 4 | 0.3 | Clc1cc(CSCc2ccccc2)cc(Cl)c1NC1=NCCN1 |  | twofold
> 235 | 1.5 | > 100 | 2 | > 100 |  |  |  |  |  |  |  |  |  |  | CNC(=O)c1ccc(-c2nn(C)c(=O)cc2NCc2cn(C)cn2)cc1 |  | 

Reference: article PMC11162469, “Discovery of RXFP2 genetic association in resistant hypertensive men and RXFP2 antagonists for the treatment of resistant hypertension” (Scientific Reports, 2024)
